# Earlier results as cited in US10858626B2, “Adoptive immunotherapy for treating cancer” (UNIVERSITÉ DE LAUSANNE, priority 2014, dated 2020).
# Protein sequences, listed by entry. Tags and fused reporters are not part of them. Residues count along the entry.
# UniProt P35968, 20-1356, species assumed: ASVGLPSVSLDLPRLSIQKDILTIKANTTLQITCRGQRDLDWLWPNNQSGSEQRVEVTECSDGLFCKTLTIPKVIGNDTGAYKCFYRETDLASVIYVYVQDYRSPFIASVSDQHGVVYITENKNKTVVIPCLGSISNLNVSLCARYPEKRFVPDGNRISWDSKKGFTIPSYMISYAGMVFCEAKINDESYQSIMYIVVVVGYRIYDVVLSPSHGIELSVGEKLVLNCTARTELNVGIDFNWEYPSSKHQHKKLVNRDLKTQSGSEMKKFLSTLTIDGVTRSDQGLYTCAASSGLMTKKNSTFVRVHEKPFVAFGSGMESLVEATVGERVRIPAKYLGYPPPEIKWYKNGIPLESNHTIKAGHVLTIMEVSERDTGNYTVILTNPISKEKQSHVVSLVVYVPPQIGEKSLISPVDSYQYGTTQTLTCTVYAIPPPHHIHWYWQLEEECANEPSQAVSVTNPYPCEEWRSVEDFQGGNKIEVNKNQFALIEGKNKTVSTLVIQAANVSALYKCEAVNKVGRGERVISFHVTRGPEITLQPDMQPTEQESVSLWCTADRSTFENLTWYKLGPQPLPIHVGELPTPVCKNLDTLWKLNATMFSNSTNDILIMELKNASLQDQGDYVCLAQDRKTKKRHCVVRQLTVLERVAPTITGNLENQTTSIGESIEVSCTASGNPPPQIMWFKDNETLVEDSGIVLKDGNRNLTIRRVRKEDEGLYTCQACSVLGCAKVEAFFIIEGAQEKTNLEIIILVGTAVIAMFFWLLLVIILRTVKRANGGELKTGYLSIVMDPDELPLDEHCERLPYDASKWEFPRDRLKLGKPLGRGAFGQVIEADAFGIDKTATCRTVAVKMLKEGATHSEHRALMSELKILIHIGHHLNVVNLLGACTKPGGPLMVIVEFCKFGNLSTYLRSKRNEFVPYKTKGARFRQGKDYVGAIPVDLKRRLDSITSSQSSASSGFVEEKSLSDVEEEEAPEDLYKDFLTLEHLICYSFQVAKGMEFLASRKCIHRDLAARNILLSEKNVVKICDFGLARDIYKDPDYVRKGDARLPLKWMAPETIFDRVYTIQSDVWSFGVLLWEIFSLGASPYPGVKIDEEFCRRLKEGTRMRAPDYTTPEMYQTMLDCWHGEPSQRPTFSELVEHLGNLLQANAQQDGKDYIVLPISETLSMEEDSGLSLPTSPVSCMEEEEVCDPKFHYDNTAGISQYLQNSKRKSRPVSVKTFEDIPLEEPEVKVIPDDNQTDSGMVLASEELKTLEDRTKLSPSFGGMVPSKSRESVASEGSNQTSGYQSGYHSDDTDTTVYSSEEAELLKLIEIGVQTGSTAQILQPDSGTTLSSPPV
# Target: VEGFR-2 (Homo sapiens, UniProt P35968)
# Conditions: cited from earlier work
compound,measurement,value
"O=C(Nc1cc(Oc2cc(F)c(NC(=O)C3(C(=O)Nc4ccc(F)cc4)CC3)cc2F)ccn1)C1CC1 [Altiratinib (DCC-2701), Altiratinib]",IC50,4 nM
